Reference: US11299641B2, “Curable liquid composition, composition-accommodating container, liquid composition discharging device, cured material, and method of manufacturing cured material” (RICOH COMPANY, LTD., priority 2018, dated 2022)

System: female mice
Assay: skin sensitization test in accordance with the Local Lymph Node Assay (LLNA) method, SI value
Format: in vivo
Conditions: test substance 50.0 w/v percent in acetone/olive oil 4 to 1, 25 μL per ear once a day for three days, BrdU intake
Procedure: The SI value was measured in the manner described below according to the skin sensitization test in accordance with the Local Lymph Node Assay (LLNA) method.
α-hexylcinnamaldehyde (HCA; product of FUJIFILM Wako Pure Chemical Corporation) was used as positive control material.
A liquid mixture containing acetone (product of FUJIFILM Wako Pure Chemical Corporation) and olive oil (product of Fudimi Pharmaceutical Co., Ltd.) in a volume ratio of 4 to 1 was used as medium.
For each of the test substances, the positive control, or the medium control, female mice were acclimated for 8 days including 6-day quarantine. No abnormalities were found in all the mice during the quarantine/acclimation period.
Based on the body weights measured two days before the initiation of sensitization, the mice were categorized into 2 groups (4 mice/group) by the body weight stratified random sampling method so that the body weight of each individual was within −20 to +20 percent of the average body weight of all the individuals. […]
All the animals used for the test were observed once or more times a day from the day of the initiation of sensitization to the day of the removal of the auricular lymph node (i.e., the day when the animals were transferred from the animal room). […] Also, the weight average and the standard error for each group were calculated. […]

Ethylene oxide-modified bisphenol A diacrylate [Example A3]
SI value in the LLNA test: 1.2
